Target: Adrenergic receptor alpha-1 (Rattus norvegicus, UniProt P15823+P23944+P43140)
Test: Binding affinity against alpha-1 adrenergic receptor in rat using [3H]prazosin as radioligand
Outline: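 Male Sprague-Dawley rat liver membranes (50-150 µg/mL protein) in 50 mM Tris-HCl pH 7.7 with [3H]prazosin. Incubated 50 min at 25 °C; phentolamine 10^-5 M defined nonspecific binding. At least four concentrations from 10^-10 to 10^-3 M, each in duplicate. Bound ligand was filtered and counted by scintillation.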

Amino acid sequences for entries named in this document (tags omitted). A change or cut given only in a name is not applied to a line headed by its entry.
UniProt P15823: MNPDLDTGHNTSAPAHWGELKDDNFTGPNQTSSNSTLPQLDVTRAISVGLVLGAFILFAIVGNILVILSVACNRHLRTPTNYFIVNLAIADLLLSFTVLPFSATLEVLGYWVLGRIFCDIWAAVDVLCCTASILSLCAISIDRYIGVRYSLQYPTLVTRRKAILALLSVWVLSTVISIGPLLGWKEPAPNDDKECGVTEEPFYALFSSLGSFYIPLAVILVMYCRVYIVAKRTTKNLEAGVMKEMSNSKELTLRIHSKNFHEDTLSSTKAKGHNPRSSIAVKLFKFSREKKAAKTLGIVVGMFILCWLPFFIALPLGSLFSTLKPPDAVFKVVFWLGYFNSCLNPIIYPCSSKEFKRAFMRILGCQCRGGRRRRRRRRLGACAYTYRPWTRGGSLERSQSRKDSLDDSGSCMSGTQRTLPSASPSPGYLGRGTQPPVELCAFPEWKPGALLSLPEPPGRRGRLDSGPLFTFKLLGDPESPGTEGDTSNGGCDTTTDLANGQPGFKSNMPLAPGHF
UniProt P23944: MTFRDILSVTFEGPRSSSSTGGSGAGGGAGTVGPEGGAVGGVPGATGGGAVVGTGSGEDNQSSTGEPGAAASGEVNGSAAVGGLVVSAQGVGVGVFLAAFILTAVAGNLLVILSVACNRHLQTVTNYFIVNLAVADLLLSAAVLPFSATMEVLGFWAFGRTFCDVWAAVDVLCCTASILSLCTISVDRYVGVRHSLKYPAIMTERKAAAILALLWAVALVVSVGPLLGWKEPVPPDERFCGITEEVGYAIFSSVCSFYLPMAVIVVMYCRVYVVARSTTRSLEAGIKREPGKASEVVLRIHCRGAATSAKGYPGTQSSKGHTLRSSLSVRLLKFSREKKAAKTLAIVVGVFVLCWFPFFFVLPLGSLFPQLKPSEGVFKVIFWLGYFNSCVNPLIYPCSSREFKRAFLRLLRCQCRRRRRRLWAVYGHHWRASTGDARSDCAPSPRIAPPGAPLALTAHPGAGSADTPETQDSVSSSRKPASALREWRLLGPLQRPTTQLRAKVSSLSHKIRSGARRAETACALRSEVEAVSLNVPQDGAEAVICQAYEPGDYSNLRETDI
UniProt P43140: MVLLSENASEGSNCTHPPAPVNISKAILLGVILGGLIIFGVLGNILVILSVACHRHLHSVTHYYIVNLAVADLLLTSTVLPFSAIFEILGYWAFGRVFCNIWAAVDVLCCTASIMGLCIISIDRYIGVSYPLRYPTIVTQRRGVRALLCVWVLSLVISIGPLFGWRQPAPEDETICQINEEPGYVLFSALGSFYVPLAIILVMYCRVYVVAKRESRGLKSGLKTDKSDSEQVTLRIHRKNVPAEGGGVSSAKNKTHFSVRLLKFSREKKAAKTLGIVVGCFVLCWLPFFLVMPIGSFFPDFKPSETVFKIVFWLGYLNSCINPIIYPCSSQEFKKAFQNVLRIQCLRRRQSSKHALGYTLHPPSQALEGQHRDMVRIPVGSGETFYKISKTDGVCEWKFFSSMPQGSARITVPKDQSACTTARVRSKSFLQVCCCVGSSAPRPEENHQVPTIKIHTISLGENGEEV

Clc1cccc(Cl)c1NC1=NCCN1 [CLONIDINE]
Ki: 520 nM

— ChEMBL document CHEMBL1122942, “Conformationally defined adrenergic agents. 1. Design and synthesis of novel alpha 2 selective adrenergic agents: electrostatic repulsion based conformational prototypes” (J Med Chem, 1985)
